Read-outs that look alike come from different tables or passages of the source.
Columns and labels:
[1] = molecular target: T1, H. sapiens p97 (P55072) (Homo sapiens, UniProt P55072); experiment: p97 ATPase activity, ATP consumption assay (Kinase-Glo), IC50 / counter screen; format: biochemical
T1 construct: 6xHis (C); made in house; host or cells: E. coli BL21 (DE3)

The chains behind the UniProt entries cited, without tags or fusion partners.
UniProt P55072, whole entry: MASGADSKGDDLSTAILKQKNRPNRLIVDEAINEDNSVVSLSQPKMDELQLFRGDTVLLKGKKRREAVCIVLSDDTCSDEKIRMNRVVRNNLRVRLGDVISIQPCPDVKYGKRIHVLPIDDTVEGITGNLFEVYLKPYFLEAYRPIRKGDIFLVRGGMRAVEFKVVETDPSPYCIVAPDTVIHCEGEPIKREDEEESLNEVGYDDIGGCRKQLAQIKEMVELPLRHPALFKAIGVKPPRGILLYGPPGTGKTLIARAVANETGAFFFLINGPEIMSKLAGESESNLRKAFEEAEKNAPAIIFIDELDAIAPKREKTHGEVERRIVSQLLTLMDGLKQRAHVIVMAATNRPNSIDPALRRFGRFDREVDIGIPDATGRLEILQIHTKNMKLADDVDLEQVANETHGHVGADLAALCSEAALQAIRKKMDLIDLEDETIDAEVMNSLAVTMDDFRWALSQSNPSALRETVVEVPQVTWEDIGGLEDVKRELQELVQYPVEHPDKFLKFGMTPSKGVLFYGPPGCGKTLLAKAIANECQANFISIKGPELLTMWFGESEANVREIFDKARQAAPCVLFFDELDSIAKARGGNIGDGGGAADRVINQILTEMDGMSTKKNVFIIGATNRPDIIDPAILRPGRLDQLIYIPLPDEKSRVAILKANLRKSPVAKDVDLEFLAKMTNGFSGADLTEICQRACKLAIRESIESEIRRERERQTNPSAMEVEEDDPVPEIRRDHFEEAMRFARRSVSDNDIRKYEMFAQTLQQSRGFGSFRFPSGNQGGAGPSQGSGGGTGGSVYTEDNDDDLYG
UniProt G4M0P7, entry or part of it: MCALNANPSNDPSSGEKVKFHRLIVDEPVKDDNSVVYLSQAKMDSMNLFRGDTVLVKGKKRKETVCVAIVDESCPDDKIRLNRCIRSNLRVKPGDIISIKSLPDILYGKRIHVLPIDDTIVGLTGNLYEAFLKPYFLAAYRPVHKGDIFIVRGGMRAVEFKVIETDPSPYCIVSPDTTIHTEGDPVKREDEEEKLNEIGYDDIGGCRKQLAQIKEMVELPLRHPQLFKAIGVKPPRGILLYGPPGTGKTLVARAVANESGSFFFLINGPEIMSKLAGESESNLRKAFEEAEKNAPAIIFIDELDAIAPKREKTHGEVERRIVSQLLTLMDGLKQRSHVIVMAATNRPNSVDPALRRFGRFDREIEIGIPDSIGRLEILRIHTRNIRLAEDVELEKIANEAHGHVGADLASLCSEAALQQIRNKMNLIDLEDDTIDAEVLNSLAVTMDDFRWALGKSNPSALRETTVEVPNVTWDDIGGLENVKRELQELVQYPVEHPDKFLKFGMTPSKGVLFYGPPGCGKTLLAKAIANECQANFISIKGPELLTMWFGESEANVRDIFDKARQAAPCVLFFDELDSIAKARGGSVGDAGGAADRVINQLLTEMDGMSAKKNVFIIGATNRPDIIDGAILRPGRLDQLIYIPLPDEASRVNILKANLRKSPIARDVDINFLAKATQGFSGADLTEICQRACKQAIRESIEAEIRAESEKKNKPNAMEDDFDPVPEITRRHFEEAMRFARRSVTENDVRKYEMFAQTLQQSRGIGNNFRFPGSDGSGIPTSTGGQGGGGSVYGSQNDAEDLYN

[2] = molecular target: S. mansoni p97 (Smp_018240) (Schistosoma mansoni, UniProt G4M0P7); experiment: biochemical
Method: E. coli BL21 (DE3) containing the desired plasmid were grown in LB medium containing […] kanamycin while shaking at 37 °C to an OD600 of 0.6–0.8. The temperature was reduced to 18°C and 0.8 mM isopropyl-beta-D-thiogalactopyranoside (IPTG) was added. The bacterial culture was harvested 16hr later by centrifugation. The resulting pellet was suspended in 60 mL lysis buffer/2L bacterial culture [20 mM Tris (pH 7.4), 300 mM NaCl, 5 mM MgCl2, 20 mM imidazole, 1% Triton X-100, 1 mg/mL lysozyme, 10% glycerol, 3 mM β-mercaptoethanol, 0.2 mM PMSF, and protease inhibitor tablet (Roche)]. […] The lysate was centrifuged at 40,000 × rpm for 35 min at 4°C. The resulting supernatant was incubated with Ni-NTA beads equilibrated to lysis buffer for 1 hr at 4°C before being loaded onto a gravity column. The bead bed was washed with wash buffer [20 mM Tris (pH 7.4), 500 mM NaCl, 5 mM MgCl2, 40 mM imidazole, 0.05% Triton X-100, 10% glycerol, 3 mM β-mercaptoethanol, 0.2 mM PMSF, 0.001 mg/mL Aprotinin, and 0.002 mg/mL Leupeptin], then eluted in the same buffer with 250 mM imidazole in wash buffer. Fractions containing p97 were concentrated using Pierce Protein Concentrators (100k MWCO) and loaded onto a gel-filtration column (Superdex 200PG) and eluted using SEC buffer [20 mM Tris (pH 7.4), 180 mM NaCl, 5 mM MgCl2, and 10% glycerol] at 0.5 mL/min flow rate on a BioRad NGC Chromatography System. Fractions corresponding to an apparent molecular weight of 500 – 600 kDa were collected and analyzed by 4–20% SDS/PAGE to evaluate purity. Concentration was determined using a BSA standard. Fractions containing purified protein were aliquoted, snap frozen in liquid nitrogen, and stored at −80 °C until use.
For manual ATP consumption assays, 1 μM p97 was incubated with 1% DMSO or inhibitor (1% DMSO final) in assay buffer [50 mM Tris (pH 7.5), 20 mM MgCl2, 1 mM EDTA, 0.5 mM tris(2-carboxyethyl)phosphine (TCEP)] for 5 minutes prior to the addition of 20 μM ATP in a 384-well plate for a total reaction volume of 10 μL, and a final concentration of 500nM enzyme and 10 μM ATP. The reaction was allowed to proceed for 50 minutes at room temperature before adding equivalent volume of Kinase-Glo Plus reagent (Promega), and a further incubation of 10 minutes in the dark.
IC50 values were calculated using GraphPad Prism.

[3] = system: adult S. mansoni worms; experiment: Treatment of adult S. mansoni worms in culture with inhibitors (attachment to tissue culture substrate, morphology; single 10 μM and dose-response EC50); format: cell-based, Schistosoma mansoni; conditions: for EC50: Schistosoma mansoni, adult parasites, fraction of worms attached, 72 hours of drug treatment, in culture until D5, 50 μM - 10 nM, Suppl. Fig. 9C
Method: Adult S. mansoni (NMRI strain) (6–7 weeks post-infection) worms were harvested from infected female Swiss Webster mice by hepatic portal vein perfusion using 37°C DMEM (Mediatech, Manassas, VA), 8% Horse Serum, and heparin.
Roughly 5 adult worm pairs were placed in 3mL Basch medium in a 12-well culture vessel, and incubated at 37°C, 5% CO2 for the length of the experiment. Compound was administered at D0, D1, and D2, media and drug refreshed every 24 hr. Worms were then allowed to remain in culture until D5, where a final assessment of worm attachment to tissue culture substate was made by light microscopy. Observations on movement and morphology were also recorded. A negative control (0.1% DMSO) and positive control (PZQ; 10 μM in 0.1% DMSO) were included in each experiment, and each experiment was repeated in triplicate for validation. For compounds that caused complete detachment in replicate experiments, the treatment was expanded to three concentrations (10 μM, 5 μM, and 1 μM) following the same treatment schedule and controls as detailed above. […] Each titration experiment was performed in triplicate according to the treatment regimen described above, using DMSO and PZQ as appropriate controls. Morphologies and motility were assessed by light microscopy, and dose-response curves were calculated using the primary readout of parasite attachment to tissue culture substrate in GraphPad Prism. […]
[…] Values were calculated using Prism.

[4] = system: HepG2 cells; experiment: HepG2 cytotoxicity assay (Cell Titer Glo 2.0); format: cell-based; conditions: Homo sapiens
Method: HepG2 cells (ATCC) were plated at 2500 cells/well in 50 μL/well, dispersing cells using a 25g needle to break up clumps prior to plating. Plates were incubated for 24hr at 37C, 5% CO2. Following 24hr, 50 μL media containing 0.6% DMSO was added to a set of wells on one plate. The plate and Cell Titer Glo 2.0 reagent were brought to RT. A T=0 read was taken by adding 40 μL reagent/well, rocking the plate at 100 rpm for 2 min, then reading luminescence ~10 min later. […] 50 μL 2x concentrated compound was added to wells containing cells in 50 μL 24 hr after plating. Concentrations were tested in triplicate at following values: 30, 10, 3.3, 1.1, 0.37, 0.12, and 0.04 μM. Plates were incubated for 72 hr at 37C, 5% CO2. Following equilibration to room temperature, 40 μL undiluted reagent was added to each well, the plate rocked at 100 rpm for 2 min and then read for luminescent signal ~10 min later.
Values are plotted in excel and the 50% point determined by interpolation. Values were revisualized in Prism.

Row | Compound | IC50 [1] | Fold Selectivity [2] | IC50 [2] | activity on the enzyme [2] | EC50 [3] | effect on adult worms ([3]; benzoxazole propiolamide series, 10 μM, treated 72 hours, monitored until D5) | GI50 ([4]; HepG2, 72 h) | IC50 ([4]; HepG2, 72 h) | GI50 ([4]; HepG2, read-out: HepG2 GI50) | IC50 ([4]; HepG2, read-out: HepG2 IC50)
1 | O=C(C#CC1CCCCC1)Nc1ccc2oc(-c3ccccn3)nc2c1 [Compound 733, 3-cyclohexyl-N-(2-(pyridin-2-yl)benzo[d]oxazol-5-yl)propiolamide] | 43000 ± 4400 nM | 1.3 | 34000 ± 1600 nM | abolishing activity on the enzyme | 3200 nM | still active on worms |  |  |  | 
2 | O=C(C#Cc1ccncc1)Nc1ccc2oc(-c3ccc(C(F)(F)F)cn3)nc2c1 [Compound 808, 3-(pyridin-4-yl)-N-(2-(5-(trifluoromethyl)pyridin-2-yl)benzo[d]oxazol-5-yl)propiolamide] | 410 ± 84 nM | 2.3 | 180 ± 26 nM |  | 2400 nM |  | 2600 nM | 3400 nM | 2600 nM | 3400 nM

Reference: publication doi:10.1101/2025.03.14.643303, “A genome-scale drug discovery pipeline uncovers new therapeutic targets and a unique p97 allosteric binding site in Schistosoma mansoni” (bioRxiv, 2025)
